Molecular target: IL-1β (Homo sapiens, UniProt P01584)
Assay: In vitro potency (IC50) of IL-1β antibodies
Assay type: biochemical

IC50: 2 to 5 pM
in vitro potency compared to canakinumab (higher potency): ~10 times
Substance: gevokizumab: high-affinity, humanized monoclonal antibody of the IgG2 isotype to interleukin-1β (SEQ ID NO:19 and 20)

— US20220025036A1, “USE OF IL-1BETA BINDING ANTIBODIES” (NOVARTIS AG, priority 2018, published 2022)
